Curated experimental data: melting point values

The melting point is given in degrees Celsius. "via" names the databases from which the curators took the value.

- CC[C@@]12CCCN3CCc4c(n(c5ccccc45)C(=O)C1)[C@H]32 [Eburnamenin-14(15H)-one]: MP 174 °C (via OCHEM)
- O=C(O)Cc1cnn(-c2ccccc2)c1 [(1-Phenyl-1H-pyrazol-4-yl)acetic acid]: MP 108 °C (via OCHEM)
- CNc1nc(C)cs1 [N,4-dimethyl-1,3-thiazol-2-amine]: MP 70 °C (via OCHEM)
- N#CC1=C(N)CCC1 [2-Aminocyclopent-1-ene-1-carbonitrile]: MP 147 °C (via OCHEM)
- CCCCOc1ccc(/C=N/c2ccc(CC)cc2)cc1 [4-Butyloxybenzal-4'-ethylaniline]: MP 40.5 °C (via PubChem)
- COC(=O)c1c(C)[nH]c(C(=O)O)c1C [3,5-Dimethyl-1H-pyrrole-2,4-dicarboxylic acid 4-methyl ester]: MP 207 °C (via OCHEM)
- NC(=O)c1c(N)sc2c1CCCCC2: MP 197 °C (via OCHEM)
- C=CCc1cc([N+](=O)[O-])ccc1O [2-allyl-4-nitrophenol]: MP 69 °C (via OCHEM)
- Nc1cccc(C(F)(F)F)c1Cl [2-chloro-3-(trifluoromethyl)aniline]: MP 26.5 °C (via OCHEM)
- Cc1ccn2c(=O)c(C(=O)O)cnc2c1 [8-methyl-4-oxo-4H-pyrido[1,2-a]pyrimidine-3-carboxylic acid]: MP 242 °C (via OCHEM)
- NNc1ncnc2c1oc1ccccc12 [4-hydrazino[1]benzofuro[3,2-d]pyrimidine]: MP 233 °C (via OCHEM)
- Cc1cccc(OCC(=O)NN)c1 [Acetic acid, (3-methylphenoxy)-, hydrazide]: MP 110 °C (via OCHEM)
- Cc1cccc2nc(CCl)cc(=O)n12 [2-(chloromethyl)-6-methyl-4H-pyrido[1,2-a]pyrimidin-4-one]: MP 121 °C (via OCHEM)
- O=C(CCCl)Nc1ccc(F)cc1 [3-chloro-N-(4-fluorophenyl)propanamide]: MP 110 °C (via OCHEM)
- CNC(=O)c1ccc(OC)c(N)c1 [3-Amino-4-methoxy-N-methylbenzamide]: MP 143 °C (via eChemPortal)
- NC(=O)Cc1nc2ccccc2s1 [2-(1,3-Benzothiazol-2-yl)acetamide]: MP 168 °C (via OCHEM)
- Nc1c(Cl)nc(-c2ccccc2)nc1Cl [4,6-dichloro-2-phenylpyrimidin-5-amine]: MP 141 °C (via OCHEM)
- COc1ccc(CNC(=O)C2CCNCC2)cc1 [N-(4-methoxybenzyl)piperidine-4-carboxamide]: MP 119 °C (via OCHEM)
- Cc1ccc(S(=O)(=O)NCCC(=O)O)cc1 [3-(Toluene-4-sulfonylamino)-propionic acid]: MP 149 °C (via OCHEM)
- COc1ccc(Cl)cc1CC(=O)O [(5-chloro-2-methoxyphenyl)acetic acid]: MP 132 °C (via OCHEM)
- Cc1ccccc1-n1cn[nH]c1=S [4-(2-methylphenyl)-4H-1,2,4-triazole-3-thiol]: MP 145 °C (via OCHEM)
- O=C1Nc2c(ccc(Cl)c2Cl)C1=O [6,7-Dichloro-1H-indole-2,3-dione]: MP 204 °C (via OCHEM)
- CCCCCCCCCCCCCC(=O)N(C)CC(=O)[O-].[Na+] [Glycine, N-methyl-N-(1-oxotetradecyl)-, sodium salt]: MP 150.6 °C (via eChemPortal)
- CN1CCN(c2ncc(Br)c(OCc3ccccc3)n2)CC1 [4-(Benzyloxy)-5-bromo-2-(4-methylpiperazin-1-yl)pyrimidine]: MP 62.5 °C (via OCHEM)
- Cc1ccc(NC(=O)C(=O)NN)cc1 [2-hydrazino-N-(4-methylphenyl)-2-oxoacetamide]: MP 205 °C (via OCHEM)
- CCOC(=O)c1c(-c2ccccc2Cl)csc1N [ethyl 2-amino-4-(2-chlorophenyl)thiophene-3-carboxylate]: MP 69 °C (via OCHEM)
- N#CCC(=O)c1ccc(Cl)cc1Cl [3-(2,4-Dichlorophenyl)-3-oxopropanenitrile]: MP 63 °C (via OCHEM)
- NC(c1ccccc1)c1ccncc1 (stereo not given) [phenyl(pyridin-4-yl)methanamine]: MP 41 °C (via OCHEM)
- CC(=O)c1cc(Cl)cc(CCl)c1O [1-[5-Chloro-3-(chloromethyl)-2-hydroxyphenyl]ethan-1-one]: MP 73 °C (via OCHEM)
- O=C(O)CCCNc1ccccc1[N+](=O)[O-] [4-[(2-nitrophenyl)amino]butanoic Acid]: MP 117 °C (via OCHEM)
- O=C(O)c1cc(-c2cccc(Br)c2)nc2ccccc12 [2-(3-bromophenyl)quinoline-4-carboxylic acid]: MP 216 °C (via OCHEM)
- CCCOc1ccc(C#N)cc1OC [3-methoxy-4-propoxybenzonitrile]: MP 91 °C (via OCHEM)
- CC(=O)O[C@H]1[C@H]2O[C@H]2C2=CC(=O)[C@]3(C[C@]2(C)[C@H]1C)O[C@]3(C)C=O: MP 156 °C (via PubChem)
- Cc1noc(C)c1CC(=O)O [(3,5-Dimethyl-1,2-oxazol-4-yl)acetic acid]: MP 118 °C (via OCHEM)
- NS(=O)(=O)c1ccc(N2CCOCC2)c(C(=O)O)c1 [5-(aminosulfonyl)-2-morpholin-4-ylbenzoic acid]: MP 278 °C (via OCHEM)
- COc1ccc(C(=O)N(NC(=O)c2ccccc2)C(C)(C)C)cc1OC [N'-Benzoyl-N-tert-butyl-3,4-dimethoxybenzohydrazide]: MP 206 °C (via OCHEM)
- CCn1c(N)nc2ccccc21 [1-Ethyl-1H-benzoimidazol-2-ylamine]: MP 153 °C (via OCHEM)
- Cc1cc(C2C(=O)Oc3c2cc(C(C)(C)C)cc3C(C)(C)C)cc(C)c1O (stereo not given): MP 237.5 °C (via eChemPortal)
- Cc1ccc(-c2cc(N)on2)cc1 [3-(4-methylphenyl)isoxazol-5-amine]: MP 149 °C (via OCHEM)
- Cc1ccc(-c2nnc(Cl)c3ccccc23)cc1 [1-chloro-4-(4-methylphenyl)phthalazine]: MP 146 °C (via OCHEM)
- Nc1nnc(-c2ccc3c(c2)OCO3)o1 [1,3,4-Oxadiazol-2-amine, 5-(1,3-benzodioxol-5-yl)-]: MP 272 °C (via OCHEM)
- Nc1ccc(-c2csc(N)n2)cc1 [4-(4-Aminophenyl)-1,3-thiazol-2-amine]: MP 179 °C (via OCHEM)
- O=C(O)C1CCCCN1C(=O)c1ccccc1 (stereo not given) [1-benzoylpiperidine-2-carboxylic acid]: MP 129 °C (via OCHEM)
- c1ccc(-c2nnco2)cc1 [1,3,4-Oxadiazole, 2-phenyl-]: MP 36 °C (via OCHEM)
- CC(O)CN(CC(C)O)c1nc(Nc2ccc(S(=O)(=O)[O-])cc2)nc(Nc2ccc(/C=C/c3ccc(Nc4nc(Nc5ccc(S(=O)(=O)[O-])cc5)nc(N(CC(C)O)CC(C)O)n4)cc3S(=O)(=O)[O-])c(S(=O)(=O)[O-])c2)n1.[Na+].[Na+].[Na+].[Na+] (stereo partly drawn): MP 393.5 °C (via OFMPub, eChemPortal)
- CC1(c2ccco2)NC(=O)NC1=O (stereo not given) [5-(2-furyl)-5-methylimidazolidine-2,4-dione]: MP 180 °C (via OCHEM)
- O=C1CCCc2cc(S(=O)(=O)Cl)ccc2N1: MP 209 °C (via OCHEM)
- COc1ccc2[nH]c(SCc3ncc(C)c(OC)c3C)nc2c1 [Omeprazole sulfide]: MP 120.5 °C (via eChemPortal)
- O=Cc1cc(Br)ccc1OCc1ccccc1 [2-(benzyloxy)-5-bromobenzaldehyde]: MP 62 °C (via OCHEM)
- S=c1[nH]nc(-c2cccs2)o1 [5-(Thiophen-2-yl)-1,3,4-oxadiazole-2(3H)-thione]: MP 163 °C (via OCHEM)
- COc1ccc2c(c1)CC[C@@H]1[C@@H]2CC[C@]2(C)[C@@H](OC(C)=O)CC[C@@]12C: MP 105 °C (via eChemPortal)

The first 6 entries again:

compound	name	MP (°C)	via
CC[C@@]12CCCN3CCc4c(n(c5ccccc45)C(=O)C1)[C@H]32	Eburnamenin-14(15H)-one	174	OCHEM
O=C(O)Cc1cnn(-c2ccccc2)c1	(1-Phenyl-1H-pyrazol-4-yl)acetic acid	108	OCHEM
CNc1nc(C)cs1	N,4-dimethyl-1,3-thiazol-2-amine	70	OCHEM
N#CC1=C(N)CCC1	2-Aminocyclopent-1-ene-1-carbonitrile	147	OCHEM
CCCCOc1ccc(/C=N/c2ccc(CC)cc2)cc1	4-Butyloxybenzal-4'-ethylaniline	40.5	PubChem
COC(=O)c1c(C)[nH]c(C(=O)O)c1C	3,5-Dimethyl-1H-pyrrole-2,4-dicarboxylic acid 4-methyl ester	207	OCHEM

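These are experimental values that the OPERA curators gathered from public databases to train and test their QSAR models. The files give a single number for a compound and property, which may rest on several reports. How each value was measured is not recorded, so precision varies. The measured form (salt, isomer or mixture) is not always the one drawn. Some upstream entries may be estimates or bounds without being marked so.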

Data: OPERA 2.9 data sets, kmansouri/OPERA on GitHub.